From article PMC5557675 (mSphere, 2017)

Amino acid sequences for entries named in this document (tags omitted). Residues count along the entry.
UniProt A8I5W8, 1-171: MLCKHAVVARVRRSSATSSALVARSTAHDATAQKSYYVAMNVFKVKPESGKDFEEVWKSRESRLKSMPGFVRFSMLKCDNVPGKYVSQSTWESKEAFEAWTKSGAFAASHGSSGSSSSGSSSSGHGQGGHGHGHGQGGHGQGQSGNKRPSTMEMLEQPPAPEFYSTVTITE

Target: T1, LFO1 (Chlamydomonas reinhardtii, UniProt A8I5W8)
T1 construct: gene CHLRE_07g312300v5
Experiment: absorbance titration, […] nm difference
Format: binding

## C=CC1=C(C)C2=Cc3c(C=C)c(C)c4[n]3[Fe]([Cl])[n]3c(c(C)c(CCC(=O)O)c3=CC3=NC(=C4)C(C)=C3CCC(=O)O)=CC1=N2 [heme]
  Kd: 2400 ± 300 nM
